Measurements reported in patent US20200206299A1, “INHIBITORS OF BETA-ARRESTIN-NEUROKININ 1 RECEPTOR INTERACTIONS FOR THE TREATMENT OF PAIN” (priority 2016, published 2020).

Chains of the proteins cited; added tags and fusions are not shown. Lines headed by an entry give the natural chain unless they say otherwise; changes in a name come on top. Residues count along the entry.
UniProt P14600, 1-311 limits assumed: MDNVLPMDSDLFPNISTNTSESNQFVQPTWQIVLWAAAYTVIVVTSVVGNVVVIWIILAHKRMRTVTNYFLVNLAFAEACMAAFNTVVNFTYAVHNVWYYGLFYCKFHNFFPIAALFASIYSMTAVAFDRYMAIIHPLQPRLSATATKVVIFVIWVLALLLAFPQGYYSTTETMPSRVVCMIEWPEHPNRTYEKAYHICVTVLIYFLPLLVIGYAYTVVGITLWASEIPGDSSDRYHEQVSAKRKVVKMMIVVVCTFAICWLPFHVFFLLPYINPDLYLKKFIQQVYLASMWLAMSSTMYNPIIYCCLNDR

Molecular target: T1, NK1Rδ312 (Rattus norvegicus, UniProt P14600)
T1 construct: A deletion mutant NK1Rδ312 lacks the C-terminus and corresponds to a naturally occurring NK1R variant; expressed in transfected cells; host or cells: HEK293
Test: FRET biosensors of compartmentalized ERK signaling (CytoEKAR, NucEKAR) in HEK-NK1Rδ312
Format: cell-based
Details: HEK-NK1Rδ312 cells, SP challenge
Excerpt: BRET probes NK1R-RLuc8, KRas-Venus, Rab5a-Venus, βarr1-YFP, βarr2-YFP have been described (Kocan, M. et al., Frontiers in endocrinology 2010, 1, 12; Lan, T. H. et al., Traffic 2012, 13, 1450-1456). CytoEKAR and NucEKAR were from Addgene (plasmids 18680, 18681 respectively). Full length and truncated δ312 rat HA-NK1R have been described (Dery, O. et al., American journal of physiology. Cell physiology 2001, 280, C1097-1106). RLuc8 fusions of these constructs were generated by removal of the stop codon by PCR and subcloning into a pcDNA3.1-RLuc8 vector.
HEK293 cells were transfected with 55 ng/well rat NK1R with N-terminal HA.11 epitope tag (HA-NK1R) or CLR plus RAMP1 and 40 ng/well FRET biosensors. FRET was assessed 48 h after transfection, following serum restriction (0.5% FBS overnight). […] FRET was assessed 72 h after transfection, following serum restriction (0.5% FBS overnight). Cells were equilibrated in HBSS at 37° C. and FRET was analyzed using a GE Healthcare INCell 2000 Analyzer. For GFP/RFP emission ratio analysis, cells were sequentially excited using a FITC filter (490/20) with emission measured using dsRed (605/52) and FITC (525/36) filters, and a polychroic optimized for the FITC/dsRed filter pair (Quad4). […] Data were analyzed as described and expressed as emission ratios relative to baseline for each cell (F/F0). […]

SP: substance P, agonist of the neurokinin 1 receptor
cytosolic ERK activation (FRET): stimulated | nuclear ERK activation (FRET): not
